Broadly, the AUC is concentration integrated over time. Higher therefore signals high exposure.

The nature of data set [1]: Selectivity for gamma secretase-mediated amyloid beta (1 to 40) production over gamma secretase-mediated notch processing.
The nature of data set [2]: Ratio of drug level in plasma to CSF in healthy human at 600 mg/kg, po administered as single dose. It counts as ADME, organism-based. More on the design: dose 600 mg/kg, route oral. As to conditions: in vivo.
Data set [3] is described as follows: AUC in brain of patient with Alzheimer's disease at 450 mg/kg. It counts as ADME, organism-based. Further details: dose 450 mg/kg. As to conditions: human.
The next data set relates to Homo sapiens. The data set can be described thus: AUC in plasma of patient with Alzheimer's disease at 450 mg/kg.

Regarding `O=S(=O)(N[C@H](CO)C(C(F)(F)F)C(F)(F)F)c1ccc(Cl)s1` [BEGACESTAT], the Selectivity ratio in data set [1] is 14. In data set [2], the Ratio was 10. The AUC (in data set [3]; in the data set with Homo sapiens) was 2330 ng·h/mL throughout.
